Assay results reported in PMC7601681, “Human Serum Albumin Binds Native Insulin and Aggregable Insulin Fragments and Inhibits Their Aggregation” (Biomolecules, 2020).

Test: Solubility and aggregation of pyrene-labeled peptides seen by absorption and fluorescence
Procedure: The solutions of HSA (concentration = 3 10^−5 M) were prepared by dissolving the protein in 0.01 M of phosphate buffer saline (PBS, [NaCl] = 150 mM), pH = 7.2. […] The prepared samples were used within 24 h. […] The concentration of HSA was verified spectrophotometrically using the molar absorption coefficient 35500 M^−1cm^−1 at 280 nm for HSA [61]. In order to ensure complete protein hydration, the solutions were stored at room temperature for at least 1 h before measurements. The samples for fluorescence measurements were saturated with argon or deaerated with a vacuum pump.
The absorbances of Py-LYQLENY and Py-VEALYL were determined in 10 mM standard PBS solution, ethanol, methanol, and 10 mM TX-100. […]
This allowed the molar coefficient absorbance to be determined, using the gravimetric […]
Py-LYQLENY stock solution in dioxane to the buffer solution enabled the molar absorbance coefficient […]
In order to investigate the possible aggregation of the fluorescence labeled insulin hot spots in the buffer solution, spectrophotometric titration was performed for Py -LYQLENY (2) in a range of concentration from 2.9 to 56.4 µM. Titration was carried out until there were no significant changes in fluorescence intensity.
The fluorescence spectra were recorded for each concentration (Figure 5a). […]
Fig. S8. Fluorescence spectra of Py-LYQLENY in PBS solutions recorded for the given probe

For “Py-Ins: derivative of human insulin labeled with 4-(1-pyrene)butyric acid”, the “solubility in aqua media in the presence of HSA” value was “increased significantly” and the “aggregation in buffer solution” value (0.01 M PBS, 150 mM NaCl, pH 7.2) was “partial aggregation”.
